Results reported in EP0975608B1.

Chains of the proteins cited; added tags and fusions are not shown. Residues count along the entry.
UniProt P05106, 27-788 limits assumed: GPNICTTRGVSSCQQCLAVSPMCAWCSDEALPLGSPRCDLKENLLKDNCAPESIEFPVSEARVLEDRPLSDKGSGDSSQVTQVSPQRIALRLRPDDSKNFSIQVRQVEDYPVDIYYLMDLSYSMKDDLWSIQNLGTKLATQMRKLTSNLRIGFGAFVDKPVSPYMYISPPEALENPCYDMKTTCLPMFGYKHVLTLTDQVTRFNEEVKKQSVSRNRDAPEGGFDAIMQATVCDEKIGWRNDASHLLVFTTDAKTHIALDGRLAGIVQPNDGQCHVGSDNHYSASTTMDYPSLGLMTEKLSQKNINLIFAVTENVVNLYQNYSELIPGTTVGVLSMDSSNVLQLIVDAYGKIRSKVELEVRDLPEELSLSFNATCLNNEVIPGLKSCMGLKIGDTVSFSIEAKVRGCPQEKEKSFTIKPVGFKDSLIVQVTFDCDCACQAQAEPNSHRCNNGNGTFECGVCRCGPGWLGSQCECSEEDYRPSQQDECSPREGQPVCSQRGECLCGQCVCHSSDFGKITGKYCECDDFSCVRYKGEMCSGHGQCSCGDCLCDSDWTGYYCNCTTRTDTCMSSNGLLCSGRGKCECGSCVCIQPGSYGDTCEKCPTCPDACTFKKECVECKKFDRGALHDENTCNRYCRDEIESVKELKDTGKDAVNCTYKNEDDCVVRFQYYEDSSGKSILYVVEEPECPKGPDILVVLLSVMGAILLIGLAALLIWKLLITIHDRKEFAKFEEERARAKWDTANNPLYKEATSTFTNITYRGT
UniProt P08514, 32-887 limits assumed: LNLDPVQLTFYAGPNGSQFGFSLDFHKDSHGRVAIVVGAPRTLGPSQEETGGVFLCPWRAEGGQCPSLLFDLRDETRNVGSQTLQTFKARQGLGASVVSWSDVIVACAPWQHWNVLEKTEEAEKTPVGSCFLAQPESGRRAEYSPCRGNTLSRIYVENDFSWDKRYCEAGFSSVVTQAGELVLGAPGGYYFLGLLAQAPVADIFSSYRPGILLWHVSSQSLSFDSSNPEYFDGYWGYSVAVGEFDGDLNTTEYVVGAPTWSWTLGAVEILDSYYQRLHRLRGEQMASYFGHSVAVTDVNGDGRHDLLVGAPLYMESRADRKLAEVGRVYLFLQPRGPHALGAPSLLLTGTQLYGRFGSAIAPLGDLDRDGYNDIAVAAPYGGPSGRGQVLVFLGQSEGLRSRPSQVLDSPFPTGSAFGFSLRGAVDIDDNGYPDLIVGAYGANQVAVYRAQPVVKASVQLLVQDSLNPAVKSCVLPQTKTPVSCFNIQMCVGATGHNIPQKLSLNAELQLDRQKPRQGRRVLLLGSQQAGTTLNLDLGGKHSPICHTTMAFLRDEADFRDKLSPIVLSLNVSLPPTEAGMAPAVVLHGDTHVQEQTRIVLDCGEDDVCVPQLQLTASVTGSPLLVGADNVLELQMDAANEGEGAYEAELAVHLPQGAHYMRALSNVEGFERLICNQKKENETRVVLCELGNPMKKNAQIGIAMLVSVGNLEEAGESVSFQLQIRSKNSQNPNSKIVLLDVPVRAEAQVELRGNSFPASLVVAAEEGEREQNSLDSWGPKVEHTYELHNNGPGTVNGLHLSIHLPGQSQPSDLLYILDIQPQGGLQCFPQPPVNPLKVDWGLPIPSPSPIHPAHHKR

Columns and labels:
GPIIb/IIIa = GPIIb/IIIa (Homo sapiens, UniProt P05106+P08514); assay: ADP induced platelet aggregation (PA) in citrated plasma; details: read-out: IC50(PA)
[1] = system: ex vivo platelet aggregation; assay: Mouse ID50: ex vivo platelet aggregation after oral dosing; details: mice dosed at 100 mg/kg orally, sacrificed at 1 or 3 hours

Structure (SMILES)	IC50 (GPIIb/IIIa)	Mouse ID50 [1]
CN1C(=O)CN(CCC(=O)O)C(=O)c2cc(NC(=O)c3ccc(C(=N)N)cc3)ccc21	0.059 µM	9.5 mg/kg
CN1C(=O)CN(CCC(=O)O)C(=O)c2c1ccc(NC(=O)c1ccc(C(=N)N)cc1)c2Cl	0.085 µM	7.2 mg/kg
CN1C(=O)CN(CCC(=O)O)C(=O)c2cc(C#Cc3ccc(C(=N)N)cc3)ccc21	–	20 mg/kg
CCN1C(=O)CN(CCC(=O)O)C(=O)c2cc(OCc3ccc(C(=N)N)cc3)ccc21	0.076 µM	20.3 mg/kg
